Screens deposited in PubChem by National Center for Advancing Translational Sciences (NCATS).
Rows were chosen to be rich in hits. Some 2.5% of all compounds tested hit in one or more screens of this group.
TrxR1 inh – rat TrxR1 inhibition; recombinant rTrxR1, NADPH fluorescence consumption, selenite substrate; Potency, µM (doses to about 114 µM), hits mostly inhibitors; 390,000 tested, 1% active; note: nearly all actives have a fitted effect of over 65% in size
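Rat TrxR1 (90 nM in the dispensed reagent) was pre-reduced with 400 uM NADPH for 5 min at room temperature, then incubated with compound for 15 min. After 400 uM selenite was added, NADPH fluorescence (Ex 340/Em 450 nm) was followed for 8 min.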
ClpP mod – qHTS Assay for Activators of ClpP; ATP-dependent Clp protease proteolytic subunit (Bacillus subtilis (strain 168)), P80244; purified B. subtilis ClpP, FRET peptide cleavage, 20 min; Potency, µM (titrated, usually from 57.5 µM); 340,000 tested, 1.9% active; active = well fitted falling curve with a large enough effect; inconclusive = small, poorly fitted or top-dose-only effect; inactive = no such curve, though single readings can be large or run the other way; note: the source files actives as falling curves though it sought activators and does not explain the sign; nearly all actives have a fitted effect of over 65% in size
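FRET quenching reversal measured ClpP activation: 10 microg/mL B. subtilis ClpP at pH 8 with the FRET-FV decapeptide, read at 430 nm after 320 nm excitation. The 20-min minus 0-min signal was scaled between DMSO/no-enzyme wells and ADEP (5.8 microM final).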
Anesthetic bind – binds horse apoferritin like a general anesthetic; P02791; apoferritin/1-aminoanthracene competitive binding, fluorescence; Potency, µM (series often up to 77.5 µM), hits mostly inhibitors; 350,000 tested, 0.074% active; AID 485281; note: nearly all actives have a fitted effect of over 20% in size
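Concentration-response curves derived by four-parameter Hill fitting of normalized fluorescence, where compounds displaced 1-AMA from 10 uM horse apoferritin following a brief 10 min room-temperature incubation; propofol titration acted as positive control.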
miR-21 reporter – raises the signal of a miR-21 reporter; Potency, µM (doses to about 38.3 µM); HeLa miR-21 FLuc reporter, luciferase, 48 h; AID 2288; 340,000 tested, under 10 active; active = well fitted rising curve with a large enough effect; inconclusive = small, poorly fitted or top-dose-only effect; inactive = no such curve, though single readings can be large or run the other way;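 further: miR-21 action dims this reporter so a rising signal means less miR-21 action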
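HeLa miR-21-FLuc reporter line, endogenous miR-21; 2000 cells/well in DMEM/10% FBS; compound titration up to ~40uM final, 48 h, 37 degree Celsius; luciferase detection reagent, 15 min lysis, CCD luminescence.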
TrxR1 substrate – rat thioredoxin reductase 1 substrate activity; O89049; purified TrxR1 substrate turnover, NADPH consumption readout; Potency, µM (series often up to 114 µM); 390,000 tested, 0.01% active; AID 588456; note: nearly all actives have a fitted effect of over 50% in size
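Rat TrxR1, dispensed at 90 nM, was prereduced with 400 uM NADPH (final) for 5 min at ~22 deg C, then incubated with compound 15 min before 400 uM selenite. A first-read NADPH fluorescence drop versus no-compound background flagged substrates.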
Large screens that a line does not name were inactive; ! = a repeat was not active. Unless noted, calls come from the whole dose curve; as a rule, active = well fitted curve in the direction sought with a large enough effect; inconclusive = small, poorly fitted or top-dose-only effect, or another doubt; inactive = no such curve, though single readings can be large; an effect the other way counts as inactive or inconclusive.

By UniProt entry, the sequences of proteins in these tests, tags left out.
ATP-dependent Clp protease proteolytic subunit (Bacillus subtilis (strain 168)), P80244, UniProt P80244, whole entry, looked up: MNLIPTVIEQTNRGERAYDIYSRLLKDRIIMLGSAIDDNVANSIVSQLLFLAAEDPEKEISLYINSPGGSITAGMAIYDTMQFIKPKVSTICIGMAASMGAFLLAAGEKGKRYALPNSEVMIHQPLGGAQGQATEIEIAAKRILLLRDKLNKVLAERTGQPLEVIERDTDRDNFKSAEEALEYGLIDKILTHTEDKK

COc1ccc(NC(C)=O)c([N+](=O)[O-])c1[N+](=O)[O-]	TrxR1 inh 5.01µM (no result: ClpP mod, Anesthetic bind, miR-21 reporter)
Cc1cc(C)n(CCO)c(=O)n1	none
Cc1cc(=S)cc(C)n1CCO	TrxR1 inh 35.5µM (no result: ClpP mod)
CCCCCCCCCCCCCCCC[n+]1ccc(CC(O)c2c(C)[nH]c3ccccc23)c2ccccc21 (stereo not drawn)	none (no result: Anesthetic bind, miR-21 reporter)
COC(=O)c1ccccc1NC(=O)c1ccc(COc2cc(C)cc(C)c2)o1	ClpP mod 20µM!
CCCN(C(=O)C(C)Oc1cccc(Cl)c1)c1c(N)n(Cc2ccccc2)c(=O)[nH]c1=O (stereo not drawn)	none
CCCCN(C(=O)C(C)Oc1ccc(Br)cc1)c1c(N)n(Cc2ccccc2)c(=O)[nH]c1=O (stereo not drawn)	ClpP mod 28.2µM
O=S(=O)(c1cccc(-c2cn3cc(Cl)ccc3n2)c1)N1CCOCC1	ClpP mod 28.2µM
CN(C)S(=O)(=O)c1cccc(-c2cn3cc(Cl)ccc3n2)c1	ClpP mod 28.2µM
O=S(=O)(c1cccc(-c2cn3ccccc3n2)c1)N1CCCCC1	none
CC(C)COc1ccc(C(=O)N2CCCCC2CCN2CCCCC2)cc1 (stereo not drawn)	none
CCc1ccc(CNC(=O)c2ccc(CSc3nc4ccncc4n3Cc3ccc(OC)cc3)cc2)cc1	none
COc1ccc(CCNC(=O)c2ccc(Cn3c(SCc4ccccc4)nc4cccnc43)cc2)cc1	ClpP mod 31.6µM
Cc1ccccc1CNC(=O)c1ccc(CSc2nc3cccnc3n2Cc2ccccc2)cc1	none
CCc1ccc(CNC(=O)c2ccc(CSc3nc4ccncc4n3Cc3ccccc3)cc2)cc1	ClpP mod 31.6µM
CCOc1ccccc1CNC(=O)c1ccc(Cn2c(SCc3ccccc3)nc3cccnc32)cc1	ClpP mod 15.8µM
COc1cccc(CCNC(=O)c2ccc(Cn3c(SCc4ccccc4)nc4cccnc43)cc2)c1	ClpP mod 25.1µM
COc1ccc(Cn2c(SCc3ccc(C(=O)NCCc4ccccc4)cc3)nc3cccnc32)cc1	none
COc1ccc(-c2noc(CSc3nnc(-c4ccncc4)n3-c3ccc(C)cc3)n2)cc1OC	none
COc1ccc(Cn2c(SCc3ccc(C(=O)NCc4cccs4)cc3)nc3cccnc32)cc1	ClpP mod 28.2µM
CN(CCC#N)S(=O)(=O)c1ccc2[nH]cc(C(=O)NCCc3ccccc3)c(=O)c2c1	ClpP mod 28.2µM
CCN(CC)S(=O)(=O)c1ccc2[nH]cc(C(=O)NCCN3CCCCC3C)c(=O)c2c1 (stereo not drawn)	ClpP mod inconclusive
O=C(NCCc1ccccc1)c1c[nH]c2ccc(S(=O)(=O)Nc3ccccc3F)cc2c1=O	Anesthetic bind inconclusive
Cc1ccccc1N(C)S(=O)(=O)c1ccc2[nH]cc(C(=O)NCC3CCCO3)c(=O)c2c1 (stereo not drawn)	ClpP mod 31.6µM
CCc1ccc(N(C)S(=O)(=O)c2ccc3[nH]cc(C(=O)NCC4CCCO4)c(=O)c3c2)cc1 (stereo not drawn)	Anesthetic bind inconclusive
CCN(CC)S(=O)(=O)c1ccc2[nH]cc(C(=O)NCCCN3CCCCC3)c(=O)c2c1	ClpP mod 28.2µM
CCN(CC)S(=O)(=O)c1ccc2[nH]cc(C(=O)NCCCN3CCCCC3C)c(=O)c2c1 (stereo not drawn)	ClpP mod 22.4µM
CCN(CC)S(=O)(=O)c1ccc2[nH]cc(C(=O)NCCN3CCCCCC3)c(=O)c2c1	ClpP mod inconclusive, Anesthetic bind inconclusive
COc1ccccc1NC(=O)c1oc2ccccc2c1NC(=O)Cc1ccccc1	none
Cc1ccc(OCCSc2nc3ccccc3n2CC(=O)N2CCCCC2)c(C)c1	none
COc1ccc2c(=O)c3c(=O)n(Cc4ccco4)c(-c4ccco4)nc3oc2c1	TrxR1 inh 14.1µM
CCOC(=O)c1[nH]c(C)c(CCC(=O)Nc2ccc(Br)c(C)c2)c1C	none
Cc1ccc(C(=O)Nc2nc(-c3ccco3)c(-c3ccco3)s2)o1	TrxR1 inh 25.1µM, ClpP mod inconclusive (no result: Anesthetic bind, miR-21 reporter)
O=C(CCl)Nc1nc(-c2ccco2)c(-c2ccco2)s1	TrxR1 inh 12.6µM
COC(=O)C1=C(C)N(Cc2ccco2)C(=O)/C1=C\c1ccc([N+](=O)[O-])cc1	TrxR1 inh 20µM
COC(=O)C1=C(C)N(Cc2ccco2)C(=O)/C1=C\c1ccc(N(C)C)cc1	none
COC(=O)C1=C(C)N(Cc2ccc(OC)cc2)C(=O)/C1=C\c1ccco1	TrxR1 inh 35.5µM (no result: ClpP mod)
COC(=O)C1=C(C)NC(=O)/C1=C\c1ccco1	TrxR1 inh inconclusive
COC(=O)C1=C(C)N(C)C(=O)/C1=C\c1ccco1	TrxR1 inh 25.1µM
Cc1coc2cc3oc(=O)c(CCC(=O)N4CCCCC4)c(C)c3cc12	none
Cc1ccc(Nc2nc(NCc3ccco3)nc3nccnc23)c(C)c1	none (no result: Anesthetic bind, miR-21 reporter)
Cc1cc2nc(-c3ccc(SCC(=O)Nc4ccc(S(=O)(=O)NC5CC5)cc4)nc3)[nH]c2cc1C	ClpP mod 8.91µM
CCOc1ccccc1-n1c(CN2CCN(C(=O)c3ccco3)CC2)nc2ccccc2c1=O	TrxR1 inh 20µM
CN1OC2C(=O)N(c3ccccc3)C(=O)C2C1c1ccc(F)cc1 (stereo not drawn)	Anesthetic bind 31.6µM
O=C1C2ON(c3ccccc3)C(c3ccccc3F)C2C(=O)N1c1ccccc1 (stereo not drawn)	none
CC(C)(C)c1ccc(C(=O)NC(=O)COC(=O)c2ccc(Br)o2)cc1	ClpP mod 31.6µM (no result: Anesthetic bind, miR-21 reporter)
CCS(=O)(=O)N1CCN(c2ccc([N+](=O)[O-])c(NC(C)c3ccccc3)c2)CC1 (stereo not drawn)	none
CC(Nc1cc(N2CCNCC2)ccc1[N+](=O)[O-])c1ccccc1 (stereo not drawn)	ClpP mod 28.2µM
COc1cc2c(NC3CCN(C)CC3)nc(N3CCCN(C)CC3)nc2cc1OCCCC(C)C	none (no result: Anesthetic bind, miR-21 reporter)
COc1ccc(CN2CCc3c([nH]c4ccccc34)C2)cc1Br	none
COc1ccc(CN2CCc3c([nH]c4ccccc34)C2)c(OC)c1C	ClpP mod 28.2µM
O[C@@](CCN1CCCC1)(c1ccccc1)C1CCCCC1	none (no result: TrxR1 inh, ClpP mod, miR-21 reporter, TrxR1 substrate)
CCCCCC(O)(CCN1CCCCC1)c1ccc(OCC)cc1 (stereo not drawn)	TrxR1 inh 8.91µM (no result: ClpP mod)
CCCCOc1ccc(C(O)(CCC)CCN2CCOCC2)cc1 (stereo not drawn)	TrxR1 inh inconclusive
COc1ccc(C(O)(CCN2CCCCC2)C2CCCCC2)cc1 (stereo not drawn)	TrxR1 inh 2.82µM
CCCC(O)(CCN1CCCCC1)c1ccc(OCC)cc1 (stereo not drawn)	TrxR1 inh 50.1µM
